For this assay, the target named is Translocator protein (Rattus norvegicus, UniProt P16257). Nature of the assay: Displacement of [3H]PK11195 from PBR receptor in Wistar rat heart homogenates. It is filed as tissue-based. The gist of the method:
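Competition binding against [³H]PK11195 in homogenised rat heart tissue.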
On the technique in general: In a radioligand displacement assay an active substance lowers the binding of a labelled ligand.

By UniProt entry, the sequences of proteins in these tests, tags left out.
UniProt P16257, whole entry, looked up: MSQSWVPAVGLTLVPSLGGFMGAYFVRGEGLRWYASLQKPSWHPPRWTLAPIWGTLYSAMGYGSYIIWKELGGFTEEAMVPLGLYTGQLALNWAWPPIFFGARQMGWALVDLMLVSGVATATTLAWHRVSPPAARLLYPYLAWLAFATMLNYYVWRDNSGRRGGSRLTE

One may read the Ki as a measure of affinity in units of concentration, obtained from inhibition or displacement. High values mean lower affinity, low ones higher affinity. The compound `CCN(CC)C(=O)C1Sc2cc(F)ccc2-c2c1c1ccccc1n2CCF` (racemic) showed a Ki of 0.32 nM.
For `CCN(CC)C(=O)C1Sc2c(F)cccc2-c2c1c1ccccc1n2CCF` (racemic), the inhibitory constant (Ki) was determined as 0.31 nM.

These data come from ChEMBL document CHEMBL2375274, “Exploration of the structure-activity relationship of a novel tetracyclic class of TSPO ligands-potential novel positron emitting tomography imaging agents” (Bioorg Med Chem Lett, 2013).
